Assay results from patent US12344646B2, “Antibody-TNF α fusion protein and its preparation and applications” (priority 2018, dated 2025).

Tests used:
[1] = system: Her-2 positive human gastric cancer cells NCI-N87; test: Cytotoxicity of Her-2 antibody-TNFα fusion protein on NCI-N87 cells; format: cell-based; settings: all concentrations in test; data not shown
Experimental: FIG. 7A: the NCI-N87 cells were incubated with the antibody-TNFα fusion protein at different concentrations for 1 day; and cell survival was detected using a CCK-8 kit.
The day before experiment, the cells ([…]) in growth medium (150 μl) were added onto a 96-well plate. […] Cell viability was detected using MTT assay and cell viability using CCK-8.

[2] = system: B16/Her-2 tumor; test: In vivo anti-tumor activity on B16/Her-2 melanoma in mice; design: species or system mouse; settings: 3 mg/kg i.v., twice a week for two weeks, C57/B6 mice

Trastuzumab
effect on survival of NCI-N87 cells [1]: did not substantially impact survival | inhibition rate of B16/Her-2 tumor growth [2]: 16%
